One assay has as its target FK-506 binding protein (Homo sapiens, UniProt P62942). Kind of assay: Competitive binding assay with [3H]dihydro-FK-506. The following applies: binding to FKBP; apparent Kd, competition with [3H]dihydro-FK-506.
The next assay has as its target FKBP (Homo sapiens, UniProt P62942). Kind of assay: Inhibition of FKBP PPIase (rotamase) activity, chymotrypsin-coupled assay. Type of assay: biochemical. The following applies: apparent Ki. From the text: The inhibition of the PPIase (rotamase) enzyme activity of the FKBP (apparent "Ki" values) can also be measured according to the methods described by either Harding, M.W. et al., Nature 341:758-760 (1989) or Siekierka, J.J. et al., Nature 341:755-757 (1989). The cis-trans isomerization of the […] peptide bond in a model substrate, N-succinyl-Ala-Ala-Pro-Phe-p-nitroanilide, is monitored spectrophotometrically in a coupled assay with chymotrypsin, which releases 4-nitroanilide from the trans form of the substrate. Fischer, G. et al., Nature 337:476-478 (1989). The inhibitory effect of the addition of different concentrations of inhibitor on the extent of the reaction is determined, and analysis of the change in first order rate constant as a function of inhibitor concentration yields an estimate of the apparent Ki value.

Chains of the proteins cited; added tags and fusions are not shown.
UniProt P62942, whole entry: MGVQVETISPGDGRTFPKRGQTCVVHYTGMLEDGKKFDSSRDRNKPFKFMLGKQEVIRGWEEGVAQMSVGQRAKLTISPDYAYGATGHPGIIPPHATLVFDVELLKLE

Results on 2 compounds are retold here after patent EP0584223B1, “NOVEL IMMUNOSUPPRESSIVE COMPOUNDS” (VERTEX PHARMACEUTICALS INCORPORATED, priority 1991, dated 1992).

The structures appear in SMILES notation.

In the case of `COc1cc(C(=O)C(=O)N2CCCC[C@H]2C(=O)OC(CCCc2ccccc2)CCc2cccnc2)cc(OC)c1OC` (mixture of isomers) [Compound 7, (R and S)-6-Phenyl-1-(3-pyridyl)-3-hexyl (S)-N-(3,4,5-trimethoxyphenylglyoxyl)pipecolate], at FK-506 binding protein, the Kd is 29 nM.

With `COc1cc(C(=O)C(=O)N2CCCC[C@H]2C(=O)OC(CCCc2ccccc2)CCCc2cccnc2)cc(OC)c1OC` (mixture of isomers) [Compound 9, (R and S)-1-Phenyl-7-(3-pyridyl)-4-heptyl (S)-N-(3,4,5-trimethoxyphenylglyoxyl)pipecolate], the Kd at FK-506 binding protein stood at 4 nM. Further, the Ki at FKBP was 1 nM.
